Measured values taken from paper PMC4933657, “Ultrastructure of the liver microcirculation influences hepatic and systemic insulin activity and provides a mechanism for age‐related insulin resistance” (Aging Cell, 2016).

What was measured:
[1] = old vs young C57Bl6 mice, i.v. 14C-insulin
[2] = Multiple indicator dilution (MID) in perfused liver, 14C-insulin and 3H-sucrose

In the case of insulin, the “insulin uptake in the fat and the muscle in old mice” value [1] is reported as “unchanged”, the “reduction of insulin uptake by the liver in old mice” value ([1]; n = 10 and 10, P < 0.05) is reported as “about 30%” and the “reduction in the fractional volume of distribution of insulin with age” value ([2]; n = 9 young and 10 old F344 rats, P = 0.01) is reported as 20%. For the same substance, the “volume of distribution of insulin relative to sucrose, young rats” value ([2]; perfused liver, 3-month-old F344 rats) was “the same as”, the “ratio of the volume of distribution of insulin to that of sucrose, middle age” value ([2]; perfused liver, 12- to 15-month-old F344 rats, relative to young and old) was “intermediate” and the “ratio of the volume of distribution of insulin to that of sucrose, old rats” value ([2]; perfused liver, 24- to 27-month-old F344 rats) was “about 80%”.
